Test results: patent US5171750A (priority 1991, dated 1992)

Chains of the proteins cited; added tags and fusions are not shown. Lines headed by an entry give the natural chain unless they say otherwise; changes in a name come on top. Residues count along the entry.
UniProt P06276, 29-602: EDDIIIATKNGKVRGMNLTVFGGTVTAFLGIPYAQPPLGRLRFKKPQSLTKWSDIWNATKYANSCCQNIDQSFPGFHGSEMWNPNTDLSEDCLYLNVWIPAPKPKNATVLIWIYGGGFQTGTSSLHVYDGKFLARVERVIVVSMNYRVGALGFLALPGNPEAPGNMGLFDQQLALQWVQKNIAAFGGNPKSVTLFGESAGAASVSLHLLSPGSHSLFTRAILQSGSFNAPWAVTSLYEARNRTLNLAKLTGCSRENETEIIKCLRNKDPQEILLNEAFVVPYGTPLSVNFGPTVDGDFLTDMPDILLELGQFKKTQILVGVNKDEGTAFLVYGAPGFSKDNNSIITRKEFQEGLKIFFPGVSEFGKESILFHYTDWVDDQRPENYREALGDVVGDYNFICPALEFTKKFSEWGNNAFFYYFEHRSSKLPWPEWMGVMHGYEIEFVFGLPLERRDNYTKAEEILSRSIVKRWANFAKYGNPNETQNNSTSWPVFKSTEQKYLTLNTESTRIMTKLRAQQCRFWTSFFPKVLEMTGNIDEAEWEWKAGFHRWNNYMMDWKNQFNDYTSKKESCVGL
UniProt P22303: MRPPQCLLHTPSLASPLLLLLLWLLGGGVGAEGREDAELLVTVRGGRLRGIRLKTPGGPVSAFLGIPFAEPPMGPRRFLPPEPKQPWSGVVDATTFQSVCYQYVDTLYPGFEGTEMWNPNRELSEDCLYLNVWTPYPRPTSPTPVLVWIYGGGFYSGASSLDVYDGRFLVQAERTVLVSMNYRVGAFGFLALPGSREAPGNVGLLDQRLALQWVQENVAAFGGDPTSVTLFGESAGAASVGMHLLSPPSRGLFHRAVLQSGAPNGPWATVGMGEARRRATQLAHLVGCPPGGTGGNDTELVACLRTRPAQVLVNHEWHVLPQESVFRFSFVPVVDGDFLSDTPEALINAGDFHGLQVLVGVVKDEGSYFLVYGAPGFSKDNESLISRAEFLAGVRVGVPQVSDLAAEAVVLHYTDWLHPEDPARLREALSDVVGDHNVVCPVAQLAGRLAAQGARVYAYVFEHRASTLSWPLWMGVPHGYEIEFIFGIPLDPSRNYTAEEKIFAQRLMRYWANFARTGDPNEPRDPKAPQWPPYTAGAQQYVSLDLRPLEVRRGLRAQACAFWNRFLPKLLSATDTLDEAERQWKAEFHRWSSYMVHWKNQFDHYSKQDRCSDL

What was measured:
plasma BChE = plasma BChE (Homo sapiens, UniProt P06276); test: biochemical
human erythrocyte AChE = human erythrocyte AChE (Homo sapiens, UniProt P22303); format: biochemical; conditions: pH 8

CNC(=O)Oc1ccc2c(c1)[C@]1(C)CCN[C@@H]1N2C [(2) (-)-N(1)-Norphysostigmine, (-)-(Nl)-norphysostigmine, reference compound]
IC50 (plasma BChE): 2 ± 1 nM

CC(C)c1ccc(NC(=O)Oc2ccc3c(c2)[C@]2(C)CCN(C)[C@@H]2N3C)cc1 [Ex. 9, (-)-4'isopropylcarbamoyleseroline]
IC50 (plasma BChE): 51.3 ± 0.9 nM
IC50 (human erythrocyte AChE): 758 ± 21.2 nM
